{
  "sequences": {"note": "Chains of the proteins cited; added tags and fusions are not shown. Residues count along the entry.", "UniProt P03303, 1538-1719": "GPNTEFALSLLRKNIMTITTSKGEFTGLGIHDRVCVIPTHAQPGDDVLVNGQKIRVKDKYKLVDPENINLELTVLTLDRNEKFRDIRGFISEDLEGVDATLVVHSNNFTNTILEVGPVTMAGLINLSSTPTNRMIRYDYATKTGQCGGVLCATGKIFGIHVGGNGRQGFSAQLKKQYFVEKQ"},
  "source": "patent US12252481B2",
  "about": "“Anti-viral compounds” (Aligos Therapeutics, Inc., priority 2021, dated 2025)",
  "key": {"HRV3C": {"molecular_target": "T1, HRV3C (Human rhinovirus 14, UniProt P03303)", "T1 construct": "3CLpro and HRV3C was added using a Multidrop Combi", "assay": "biochemical", "parameters": "species or system HRV"}, "SARS-Cov-2 3CLpro": {"molecular_target": "T2, SARS-Cov-2 3CLpro (Severe acute respiratory syndrome coronavirus 2, UniProt P0DTD1)", "T2 construct": "3CLpro and HRV3C was added using a Multidrop Combi", "assay": "biochemical"}},
  "data": [
    {"smiles": "N#C[C@H](C[C@@H]1CCNC1=O)NC(=O)[C@@H]1[C@@H]2[C@H](CN1C(=O)[C@@H]1C[C@]13CCc1ccccc13)[C@@H]1C=C[C@H]2C1", "note": "(single isomer, unassigned) [Example 38, (1S,3aR,4S,7R,7aS)-N-((S)-1-cyano-2-((S)-2-oxopyrrolidin-3-yl)ethyl)-2-((1R*,2R*)-2′,3′-dihydrospiro[cyclopropane-1,1′-indene]-2-carbonyl)-2,3,3a,4,7,7a-hexahydro-1H-4,7-methanoisoindole-1-carboxamide]", "values": [
      {"measurement": "IC50", "setting": "HRV3C", "value": "> 10000", "unit": "nM"},
      {"measurement": "IC50", "setting": "SARS-Cov-2 3CLpro", "value": "20 to 200", "unit": "nM"}
    ]}
  ]
}
